Assay results: ChEMBL document CHEMBL1152225, “Optimization of a series of potent and selective ketone histone deacetylase inhibitors” (Bioorg Med Chem Lett, 2008)

Biological target: T1, Histone deacetylase 8 (Homo sapiens, UniProt Q9BY41)
T1 sequence (Q9BY41 whole entry): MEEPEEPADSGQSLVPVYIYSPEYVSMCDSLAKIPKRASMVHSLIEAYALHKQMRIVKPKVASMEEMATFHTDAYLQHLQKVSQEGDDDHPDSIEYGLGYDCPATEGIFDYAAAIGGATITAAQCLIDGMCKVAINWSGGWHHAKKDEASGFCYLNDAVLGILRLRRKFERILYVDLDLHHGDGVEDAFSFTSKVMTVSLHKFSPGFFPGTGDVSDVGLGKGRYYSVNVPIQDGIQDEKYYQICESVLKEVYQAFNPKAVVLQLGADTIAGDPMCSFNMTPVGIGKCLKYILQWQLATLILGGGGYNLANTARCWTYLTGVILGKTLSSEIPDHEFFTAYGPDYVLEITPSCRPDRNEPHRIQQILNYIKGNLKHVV
Assay: Inhibition of HDAC8

O=C(CCCCCCC(=O)Nc1ccccc1)NO [VORINOSTAT]
IC50: > 1000 nM
